A short description of data set [1]: Storage stability of lyophilized hydrochloride salts (purity by HPLC). The format is physicochemical. The method, then: (§1) Test samples were assayed for 26-[[[3-[[(Z)-[1-(2-amino-5-chloro-4-thiazolyl)-2-[[(6R,7R)-2-carboxy-8-oxo-3-(pyridiniomethyl)-5-thia-1-azabicyclo[4.2.0]-oct-2-en-7-yl]amino]-2-oxoethylidene]amino]oxy]propyl]amino]carbonyl]-26-decarboxyvancomycin and its degradation products using an HPLC system with a photodiode array detector (Agilent 1100 or 1200 HPLC System; Agilent Technologies Inc., Santa Clara, Calif. 95051) controlled with chromatography data software (Empower Software, Waters Corporation, Milford, Mass. 01757). All solvents were HPLC grade and were purchased from Honeywell Burdick & Jackson (Muskegon, Mich. 49442). Phosphoric acid (85% w/w) and sodium dihydrogen phosphate were HPLC grade and were purchased from Fluka (Sigma-Aldrich, St. Louis, Mo. 63103). All reagents were used without further purification.
(§2) Test samples were filtered through a 0.2 μm polyvinylidene fluoride (PVDF) filter before analysis and the first 1 mL was discarded.
(§3) Test sample purity was determined based on the integrated peak area (area-under-the-curve or AUC) for the compound as a percentage of all integrated peaks. The concentration (assay value) of the compound in a test sample was determined by comparison with a reference standard.
(§4) Two racks containing six vials of each type of stability sample (Examples 12A-F; 6×6=36 vials) were prepared. One rack was stored protected from light in a drawer at room temperature and the other rack was stored in a refrigerator at 2 to 8° C. A representative vial of each type of stability sample was analyzed by HPLC after storage for 1, 3, 6 and 12 months to determine purity.

The nature of data set [2]: Storage stability of hydrochloride salts in a lyophilized composition containing sucrose and glycine (purity by HPLC). The format is physicochemical. How it is done: as §1, §2, §3, §4
[3] abbreviates: refrigerated temperature (2 to 8° C.), 6 months, dihydrochloride.
Setting [4] is: refrigerated temperature (2 to 8° C.), time 0 months, monohydrochloride.
Where [5] appears, read: room temperature, time 0 months, monohydrochloride.

Where a name gives a salt, the structure may show the parent alone.

For `CN[C@H](CC(C)C)C(=O)NC1C(=O)N[C@@H](CC(N)=O)C(=O)N[C@H]2C(=O)N[C@H]3C(=O)N[C@H](C(=O)N[C@H](C(=O)NCCCO/N=C(\C(=O)N[C@@H]4C(=O)N5C(C(=O)[O-])=C(C[n+]6ccccc6)CS[C@H]45)c4nc(N)sc4Cl)c4cc(O)cc(O)c4-c4cc3ccc4O)[C@H](O)c3ccc(c(Cl)c3)Oc3cc2cc(c3O[C@@H]2O[C@H](CO)[C@@H](O)[C@H](O)[C@H]2O[C@H]2C[C@](C)(N)[C@H](O)[C@H](C)O2)Oc2ccc(cc2Cl)[C@H]1O` (stereo partly drawn) [Dihydrochloride, 26-[[[3-[[(Z)-[1-(2-amino-5-chloro-4-thiazolyl)-2-[[(6R,7R)-2-carboxy-8-oxo-3-(pyridiniomethyl)-5-thia-1-azabicyclo[4.2.0]oct-2-en-7-yl]amino]-2-oxoethylidene]amino]oxy]propyl]amino]carbonyl]-26-decarboxyvancomycin dihydrochloride], the “Purity (HPLC area percent)” value in data set [1] (setting [3]) is 90.8%; in data set [2] (refrigerated temperature (2 to 8° C.), 1 month, dihydrochloride), 89.8%; in data set [2] (setting [3]), 90.8%; in data set [2] (refrigerated temperature (2 to 8° C.), time 0 months, dihydrochloride), 90.6%; in data set [2] (room temperature, 1 month, dihydrochloride), 89.8%; in data set [2] (room temperature, 3 months, dihydrochloride) it was 87.7%. Also, the “Purity (HPLC area percent)” value in data set [2] (room temperature, 6 months, dihydrochloride) was 90.8%; in data set [2] (room temperature, 12 months, dihydrochloride), 83.8%; in data set [2] (room temperature, time 0 months, dihydrochloride), 90.6%.
In the case of `CN[C@H](CC(C)C)C(=O)N[C@H]1C(=O)N[C@@H](CC(N)=O)C(=O)N[C@H]2C(=O)N[C@H]3C(=O)N[C@H](C(=O)N[C@H](C(=O)NCCCO/N=C(\C(=O)N[C@@H]4C(=O)N5C(C(=O)[O-])=C(C[n+]6ccccc6)CS[C@H]45)c4nc(N)sc4Cl)c4cc(O)cc(O)c4-c4cc3ccc4O)[C@H](O)c3ccc(c(Cl)c3)Oc3cc2cc(c3O[C@@H]2O[C@H](CO)[C@@H](O)[C@H](O)[C@H]2O[C@H]2C[C@](C)(N)[C@H](O)[C@H](C)O2)Oc2ccc(cc2Cl)[C@H]1O` [Monohydrochloride, 26-[[[3-[[(Z)-[1-(2-amino-5-chloro-4-thiazolyl)-2-[[(6R,7R)-2-carboxy-8-oxo-3-(pyridiniomethyl)-5-thia-1-azabicyclo[4.2.0]oct-2-en-7-yl]amino]-2-oxoethylidene]amino]oxy]propyl]amino]carbonyl]-26-decarboxyvancomycin monohydrochloride], the “Purity (HPLC area percent)” value is reported as 90.4% in data set [1] (refrigerated temperature (2 to 8° C.), 6 months, monohydrochloride); 90.4% in data set [1] (setting [4]); 90.4% in data set [1] (room temperature, time 0 months, listed as Mono HCl, monohydrochloride); 90.4% in data set [1] (setting [5]); 90.4% in data set [2] (setting [4]); 86.9% in data set [2] (room temperature, 3 months, monohydrochloride). The “Purity (HPLC area percent)” value in data set [2] (room temperature, 6 months, monohydrochloride) amounted to 87.9%; in data set [2] (room temperature, 12 months, monohydrochloride) it was 81.5%; in data set [2] (setting [5]) it was 90.4%.
Regarding `CN[C@H](CC(C)C)C(=O)NC1C(=O)N[C@@H](CC(N)=O)C(=O)N[C@H]2C(=O)N[C@H]3C(=O)N[C@H](C(=O)N[C@H](C(=O)NCCCO/N=C(\C(=O)N[C@@H]4C(=O)N5C(C(=O)[O-])=C(C[n+]6ccccc6)CS[C@H]45)c4nc(N)sc4Cl)c4cc(O)cc(O)c4-c4cc3ccc4O)[C@H](O)c3ccc(c(Cl)c3)Oc3cc2cc(c3O[C@@H]2O[C@H](CO)[C@@H](O)[C@H](O)[C@H]2O[C@H]2C[C@](C)(N)[C@H](O)[C@H](C)O2)Oc2ccc(cc2Cl)[C@H]1O` (stereo partly drawn) [Trihydrochloride, 26-[[[3-[[(Z)-[1-(2-Amino-5-chloro-4-thiazolyl)-2-[[(6R,7R)-2-carboxy-8-oxo-3-(pyridiniomethyl)-5-thia-1-azabicyclo[4.2.0]oct-2-en-7-yl]amino]-2-oxoethylidene]amino]oxy]propyl]amino]carbonyl]-26-decarboxyvancomycin Trihydrochloride, reference compound], the “Purity (HPLC area percent)” value in data set [2] (refrigerated temperature (2 to 8° C.), 3 months, Trihydrochloride) came out at 90.8%.
